The assay addresses T1, Nluc-A1R (Homo sapiens, UniProt P30542).
T1 construct: expressed in transfected cells; host or cells: HEK293
Nature of the assay: NanoBRET binding, displacement of CA200645. Particulars: Nluc-A1R HEK293 cells, CA200645 tracer, mean ± SEM; # values are estimates (incomplete displacement).

The chains behind the UniProt entries cited, without tags or fusion partners. Where a name states a change or a piece, a line headed by the entry shows the natural chain unless it says otherwise.
UniProt P30542, whole entry: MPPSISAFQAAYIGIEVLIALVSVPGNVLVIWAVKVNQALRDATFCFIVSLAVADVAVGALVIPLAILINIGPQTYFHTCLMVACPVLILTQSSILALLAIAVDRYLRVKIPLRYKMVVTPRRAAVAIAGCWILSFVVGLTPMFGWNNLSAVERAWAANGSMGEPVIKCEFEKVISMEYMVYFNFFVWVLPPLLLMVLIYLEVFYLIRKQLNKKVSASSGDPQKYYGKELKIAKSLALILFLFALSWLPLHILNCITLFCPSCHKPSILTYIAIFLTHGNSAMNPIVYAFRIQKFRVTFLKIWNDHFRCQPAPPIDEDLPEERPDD

By pKi is commonly meant the Ki on a negative log10 scale, so that one unit is a factor of ten.

In the case of `O=C(Cc1ccccc1)Nc1nc2ccc(Cl)cc2c2nc(-c3ccco3)nn12` [MRS1220], the negative logarithm of the Ki (pKi) is recorded as 7.29 ± 0.27.
